{
  "sequences": {"note": "Amino acid sequences for entries named in this document (tags omitted). A change or cut given only in a name is not applied to a line headed by its entry.", "UniProt P35462, whole entry": "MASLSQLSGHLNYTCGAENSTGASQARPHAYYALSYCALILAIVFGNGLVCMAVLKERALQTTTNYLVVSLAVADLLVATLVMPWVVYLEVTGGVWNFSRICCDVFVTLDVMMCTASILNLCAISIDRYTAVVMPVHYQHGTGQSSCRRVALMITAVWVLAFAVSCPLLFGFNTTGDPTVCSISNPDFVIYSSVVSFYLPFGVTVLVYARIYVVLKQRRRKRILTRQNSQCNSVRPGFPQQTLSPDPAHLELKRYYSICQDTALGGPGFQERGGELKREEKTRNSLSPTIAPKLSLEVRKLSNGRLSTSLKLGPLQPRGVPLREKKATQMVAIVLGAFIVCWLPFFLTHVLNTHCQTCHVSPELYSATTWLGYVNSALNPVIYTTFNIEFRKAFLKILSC"},
  "source": "patent US9598387B2",
  "about": "(Southern Research Institute, priority 2012, dated 2017)",
  "key": {"[1]": {"target": "human D3 dopamine receptor (Homo sapiens (Human), UniProt P35462)", "assay": "Radioligand binding (125I-IABN competition), D3", "details": "HEK cell membranes expressing human D3"}, "[2]": {"target": "T1, D3R (Homo sapiens (Human), UniProt P35462)", "assay": "[35S]GTPγS Binding Assay, CHO D3 membranes", "assay_type": "biochemical", "details": "antagonist vs dopamine; Ke = functional Ki; read-out: CHO-hD3 Ke"}, "[3]": {"target": "T1, D3R", "assay": "β-Arrestin Recruitment Assay, U2OS DRD3", "assay_type": "cell-based", "details": "antagonist vs EC80 8 nM PD128907, U2OS DRD3 cells; read-out: D3 IC50", "experimental": "Antagonist potency of the compounds against agonist induced recruitment of β-arrestin by D3R and D2LR was measured using DiscoverRx PathHunter eXpress kits. Briefly, U2OS DRD3 (DiscoveRx #93-0591E3) and CHO-K1 DRD2L (DiscoveRx #93-0579E2) cells were seeded at a density of 2500 cells/well in 384-well white, clear-bottom plates (Corning #3707) with PathHunter Cell Plating Reagents, CP0 (DiscoveRx #93-0563R0) and CP2 (DiscoveRx #93-0563R2), respectively and incubated at 37° C. for 48 hours. For the determination of EC80 values of standard agonists, the cells were treated with multiple concentrations (starting from 190 nM, 1:3 dilution, 12 dose points) of (+)-PD128907 (DiscoveRx #92-1163) for DRD3 and Pergolide (DiscoveRx #92-1162) for DRD2L. After incubation at 37° C. for 90 min, the DiscoveRx detection reagent was added, the plates were incubated at room temperature for 60 min and the luminescence was measured on a Synergy 4 plate reader (BioTek). The data were plotted and the agonist EC80 values were calculated using GraphPad Prism software. For antagonist activity, the cells were plated as described above and treated with multiple concentrations (starting from 500 nM, half log dilution, 10 dose points) of the test compounds in Plating Reagent with 0.1% DMSO. […]"}},
  "data": [
    {"smiles": "CC(C)(C)c1nc(N2CCN(CCCCNC(=O)C3CCC(c4ccccc4)CC3)CC2)cc(C(F)(F)F)n1", "note": "(stereo not drawn) [Compound 103, N-(4-(4-(2-(tert-Butyl)-6-(trifluoromethyl)pyrimidin-4-yl)piperazin-1-yl)butyl)-4-phenylcyclohexanecarboxamide]", "values": [
      {"measurement": "Ki", "setting": "[1]", "value": "9.4 ± 2.3", "unit": "nM"},
      {"measurement": "Ki", "setting": "[2]", "value": "18.7 ± 4.4", "unit": "nM"},
      {"measurement": "IC50", "setting": "[3]", "value": "6.75 ± 1.81", "unit": "nM"}
    ]}
  ]
}
